From article PMC10743564, “Acceleration of Protein Degradation by 20S Proteasome-Binding Peptides Generated by In Vitro Artificial Evolution” (International Journal of Molecular Sciences, 2023)

Amino acid sequences for entries named in this document (tags omitted). A change or cut given only in a name is not applied to a line headed by its entry.
UniProt P60900: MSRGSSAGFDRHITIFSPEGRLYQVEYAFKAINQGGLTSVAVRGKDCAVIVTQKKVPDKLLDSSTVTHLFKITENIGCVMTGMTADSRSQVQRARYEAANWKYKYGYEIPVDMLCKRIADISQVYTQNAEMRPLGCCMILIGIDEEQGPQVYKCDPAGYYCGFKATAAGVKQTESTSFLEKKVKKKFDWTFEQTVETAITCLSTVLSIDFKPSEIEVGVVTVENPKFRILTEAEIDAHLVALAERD

biological target: human 20S core particle (CP) of the proteasome (human) (UniProt P60900)

IC50 of inhibition of the CT-L activity (Suc-LLVY-AMC) of the 20S CP with 0.03% SDS | Substance
> 50 µM | Rpt3-C (peptide)
> 50 µM | 20S-BP1(7-8)YYA (peptide)

Continued, substance first:

Substance | IC50 of inhibition of the CT-L activity (Suc-LLVY-AMC) of the 20S CP with 0.03% SDS
[Ala^8]20S-BP1(1-12) (peptide) | 1 µM
Rpt2-C (peptide) | > 50 µM
Antennapedia peptide | > 50 µM

biological target: human 20S core particle (CP) of the proteasome (human) (UniProt P60900); remark: another data set of the same source

CT-L activity of intracellular proteasomes in U251 cells at 10 μM peptide | Substance
4.6 fold | AntP-20S-BP1(5-11) (peptide)
3.8 fold | AntP-20S-BP1(5-8)YYA (peptide)

biological target: human 20S core particle (CP) of the proteasome (human) (UniProt P60900); remark: another data set of the same source

half-life of the Trx fusion protein on digestion by purified 20S CP, SDS-PAGE (α-Syn fused to Trx without peptide: 4.0 h) | Substance
54 min | thioredoxin (Trx)-α-Syn fused to 20S-BP1(1-12)
54 min | thioredoxin (Trx)-α-Syn fused to 20S-BP1(1-8)YYA
